Experimental data taken from patent publication US20060122119A1, “Peptides for use in antitumor immunotherapy” (Institut Nat'l De La Sante Et De La Recherche Med., priority 2002, published 2006).

System: clone M28.10B
Assay: TNF-release assay: Melan-A-specific TIL clone co-cultured with peptide-loaded HLA-B*3501 EBV cells
Format: cell-based
Conditions: EBV cells expressing HLA-B*3501 loaded with 10 μM peptide, 6 hours co-culture

Work on AAGIGILTV [Melan-A peptide 27-35] yielded a TNF of 4 pg/mL.
